## AlphaSeq binding of Ab-14 light chain variants to a spike HR2 peptide

Data: MIT Lincoln Laboratory AlphaSeq set, Li et al. 2023, doi:10.1038/s41467-023-39022-2, as distributed in FLAb.

All variants were tested on one target, the spike HR2 peptide PDVDLGDISGINAS (SARS-CoV-2).

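The parent was found by panning a naive human phage display library on the peptide. Designed CDR sequences, proposed from the first random library and measured here. Their group label is 14L_En_HC (En: ensemble of fine-tuned language models; HC: hill climbing; a sequence that several methods proposed may carry one label only). The assay is AlphaSeq: two haploid yeast populations carry antibody and antigen on their surface. After mating in shaken culture at 30 °C for 16 h, diploids were selected and their barcode pairs sequenced. Each replicate has its own calibration line, from reference interactions of the BCL2 family. There are six technical replicates.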

Each scFv is VH, three GGGGS repeats, VL, as in the parent Ab-14, and differs from it in the CDRs of the light chain only.
VH: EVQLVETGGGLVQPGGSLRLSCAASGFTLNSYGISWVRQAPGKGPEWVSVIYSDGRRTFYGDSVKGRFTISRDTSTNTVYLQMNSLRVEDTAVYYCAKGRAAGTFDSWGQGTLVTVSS
VL: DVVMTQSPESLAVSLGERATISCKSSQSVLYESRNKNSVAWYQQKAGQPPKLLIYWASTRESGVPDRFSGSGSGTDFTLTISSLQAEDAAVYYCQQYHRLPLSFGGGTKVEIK

Each variant is given by its three light chain CDRs, as the data file delimits them; those of the parent are KSSQSVLYESRNKNSVA, WASTRES, QQYHRLPLS.
The read-out is the apparent dissociation constant on a log10 scale (nM): the lower, the stronger.
An entry "n.d." has no value in the source: the pair was not observed among the diploids in that replicate. This suggests poor binding but is not conclusive.
A sequence measured in both rounds can read differently, since the two assays cover different ranges.
The authors averaged sequences with at least three values out of six and counted those with two or fewer as poor binders.
As a blank, each scFv also met three strains without target: over all light chain designs, 4% of these pairings were detected, typically at 2.64 and seldom below 1.59. The control count says in how many pairings with the empty strains this scFv gave a signal, with their mean in brackets.
Of ten entries with the parent sequence, four were seen in most replicates (averages 0.34 to 2.37), three in one and three in none, so single entries are noisy.

| CDR-L1 | CDR-L2 | CDR-L3 | log10 Kd (nM) by replicate | control signals |
|---|---|---|---|---|
| TISTSMRYESSLKNAIA | NAQTREQ | QQYHRLPLS | 0.14 / 0.38 / 0.26 / 0.29 / 0.35 / 0.54 | 0 of 18 |
| MISDMGLHDSRIHNSVA | NNSTREA | QQYDRLPLS | 2.17 / 1.75 / 1.35 / 1.42 / 1.53 / 1.93 | 2 of 18 (2.64) |
| TITQSAQQESHNKNSVA | DLSVRGS | QQYHRLPLS | 0.28 / -0.14 / -0.06 / 0.14 / 0.00 / 0.02 | 2 of 18 (1.83) |
| KISQFVNFEGKNKNSVA | QMSTRES | QQYDRLPLS | 0.28 / 0.35 / 0.38 / 0.19 / 0.39 / 0.50 | 1 of 18 (2.28) |
| HLSHSVDLESVHKNSIA | DLMTRES | QQYHRLPLS | 0.34 / 0.22 / 0.10 / 0.19 / 0.41 / 0.35 | 2 of 18 (3.74) |
| TLGQSTLMESRNKDNVA | QMSTREK | QQYHRLPLS | -0.22 / -0.51 / -0.45 / -0.54 / -0.53 / -0.39 | 0 of 18 |
| TVGQVHEMLSRNKNSVA | DANTRES | QQYDRLPLS | 0.44 / 0.14 / 0.46 / -0.17 / 0.14 / 0.26 | 0 of 18 |
| HISQSVGLTSRNKNSVA | ENSTRED | QQYDRLPLS | 2.04 / 1.72 / 1.99 / 2.79 / 2.69 / 3.51 | 0 of 18 |
| KLYMMTGYESRNKDSIA | DNSTRGR | QQYHRLPLS | 1.35 / 1.92 / 2.98 / 1.69 / 1.98 / 1.47 | 1 of 18 (2.57) |
| HISMSVGMTSFNKNSVA | ENSTREN | QQYDRLPLS | 1.03 / 1.10 / 1.45 / 0.48 / 1.08 / 1.33 | 1 of 18 (1.35) |
| MMSQMFEGLSTKKNPVA | QVSTREE | QQYHRLPLS | 0.86 / 0.96 / 0.87 / 1.41 / 1.08 / 1.39 | 1 of 18 (1.58) |
| MITESVMYESRNRNSVA | DNSTRED | QCYDRLPLS | n.d. / 3.66 / 3.34 / 4.86 / 2.91 / n.d. | 1 of 18 (2.45) |
| TLTQVQGMESHNKNSVA | DLSLRGS | QQYHRLPLS | 0.36 / 0.19 / 0.43 / 0.17 / 0.12 / 0.41 | 0 of 18 |
| TISQMMLMQTSHKNSVA | GEETRYN | QQYHRLPLS | 0.53 / 0.52 / 0.72 / 0.73 / 0.48 / 0.70 | 0 of 18 |
| TISGSVMSESRLKNSVA | QTTTRES | QQYDRLPLS | n.d. / 1.81 / 1.09 / 0.49 / 1.01 / 1.58 | 0 of 18 |
| HISQSVGMTSFKKNSVA | ENSTRED | QQYDRLPLS | n.d. / 1.82 / 2.42 / 1.67 / 2.03 / 2.30 | 0 of 18 |
| KLSISHNVESISKSNVA | EMVTRES | QQYDRLPLS | 0.71 / 0.93 / 0.47 / 0.55 / 0.58 / 0.78 | 1 of 18 (2.70) |
| KLLQVTENMSLHRNSVA | HMSTRED | QQYHRLPLS | 1.25 / 1.00 / 1.07 / 1.50 / 0.83 / 1.07 | 2 of 18 (2.55) |
| ILSQMMLTAGNKHSSVA | QANNRTD | QQYHRLPLS | 1.04 / 1.34 / 1.21 / 1.45 / 2.13 / 1.30 | 1 of 18 (1.18) |
| TLGDVTRQESNKKSSIA | DMSNRAD | QQYHRLPIS | 0.16 / 1.21 / 0.38 / 0.26 / 0.41 / 0.39 | 0 of 18 |
| HISELMYYQSRNKNNIA | EMSTRER | QHYHRLPLS | 0.05 / 0.47 / -0.08 / -0.16 / 0.20 / 0.11 | 0 of 18 |
| KIIQSVAMSSRNKDSIA | DNSTREY | QQYHRLPLS | 2.16 / 2.62 / 2.70 / n.d. / 2.14 / n.d. | 0 of 18 |
| KLSGFHNVESINKSNVA | EMVTREN | QQYDRLPLS | 2.41 / 2.19 / 2.02 / 2.37 / 2.06 / 2.11 | 0 of 18 |
| TISMSMNWLTRNKNSIA | EESTRED | QQYDRLPLS | 1.70 / 1.31 / 0.99 / 0.59 / 0.13 / 0.96 | 0 of 18 |
| TISQMFLGESRSRNSVA | QASTRES | QSYDRLPLS | 1.36 / 0.64 / 0.61 / 0.46 / 0.35 / 0.63 | 3 of 18 (2.09) |
| SFSQTVMYQSTMRNNVA | QTSTRES | QQYDRLPLS | 0.10 / 0.33 / 0.11 / 0.37 / 0.14 / 0.57 | 0 of 18 |
| KISQMFYYESINQNSVA | QKSTREE | QDYHRLPLS | 0.62 / 0.18 / 0.72 / 0.41 / 0.65 / 1.17 | 1 of 18 (2.32) |
| KTSQSVLYESRNKNSVA | DASTRES | QQYHRLPLS | 0.20 / 0.20 / 0.12 / -0.32 / 0.05 / -0.04 | 1 of 18 (2.41) |
| KVSEMMAFLSSNRNNVA | DNSTRGS | QQYHRLPLS | n.d. / n.d. / n.d. / n.d. / n.d. / n.d. | 0 of 18 |
| KISALTMYESVNKNNIA | EMTTRPE | QSYHRLPLS | 0.22 / 0.55 / 0.01 / 0.13 / 0.76 / 0.32 | 0 of 18 |
| KLSATYRYESQNKNNIA | EMTTRES | QCYHRLPLS | 0.94 / 1.08 / 0.58 / 0.81 / 0.48 / 0.61 | 3 of 18 (2.29) |
| HLSDLVKEESRNTNSVA | DNSTRGS | QQYDRLPLS | 1.38 / 1.56 / 1.67 / 1.67 / 2.00 / 1.75 | 2 of 18 (1.49) |
| TISQSAQQESHNKNSVA | DLSVRGS | QQYHRLPLS | 0.33 / 0.36 / 0.39 / 0.35 / 0.45 / 0.15 | 0 of 18 |
| KLGMTVGYEQRNKSRVA | DNNTREQ | QQYDRLPLS | n.d. / 1.67 / 4.05 / 1.90 / 2.74 / 2.15 | 1 of 18 (3.71) |
| MISDLTMYGMRNVNSVA | DLSTRGS | QQYHRLPLS | 0.51 / 0.47 / 0.44 / 0.27 / 0.21 / 0.40 | 0 of 18 |
| KLSATSRYESQNKNSIA | EMSTRES | QCYHRLPLS | 1.76 / 2.00 / 1.88 / 2.06 / 1.69 / 1.81 | 0 of 18 |
| KLSISHQVESINKSNVA | EMVTREN | QQYDRLPLS | 3.08 / 1.79 / 2.62 / 1.90 / 1.31 / 1.78 | 0 of 18 |
| KIQYQYRFEQLSKNNIA | EVVTRLK | QQYHRLPLS | 1.93 / 1.21 / 1.82 / 1.94 / 1.80 / 2.40 | 1 of 18 (2.15) |
| KLSLFYRVETQNKYSVA | DNSTRES | QDYDRLPLS | n.d. / 2.51 / n.d. / n.d. / n.d. / n.d. | 0 of 18 |
| KIAATVLYESGNANSVA | QNSTREQ | QQYHRLPLS | 2.16 / 1.35 / 1.87 / 1.25 / 1.91 / 1.85 | 0 of 18 |
| IISQSMAYESATHNSIA | QTETREE | QQYHHLPLI | 1.36 / 0.88 / 1.22 / 1.31 / 1.45 / 1.27 | 0 of 18 |
| TISQVMHYESRNKNSVA | QTSTREE | QDYDRLPLS | 2.03 / 1.94 / 1.69 / n.d. / 1.00 / 1.17 | 0 of 18 |
| TLTQVQGMESHNKDSVA | DLSTRGQ | QQYHRLPLS | 0.26 / -0.03 / -0.01 / 0.10 / 0.31 / 0.51 | 0 of 18 |
| MMSMGFLGGMRAKNNVA | QESTRES | QQYHRLPLI | n.d. / 1.14 / 1.11 / 2.65 / 1.68 / 1.93 | 1 of 18 (1.67) |
| MMSMGSLGGMRAKNNVA | QEETRES | QQYHRLPLI | 1.77 / 1.78 / 1.14 / 1.24 / 2.33 / 1.59 | 1 of 18 (2.98) |
| KLSVSTSYLSVNKNSVA | EMSTREN | QQYDRLPLS | 0.31 / 0.65 / -0.07 / 0.34 / -0.07 / 0.54 | 1 of 18 (3.60) |
| MLSQVTHSESRNKNSIA | EMVTREV | QQYDRLPLS | 1.85 / 1.15 / 0.74 / 1.08 / 0.99 / 1.12 | 0 of 18 |
| QLLMATMQGTYQRNSVA | HAETRED | QSYHRLPLS | n.d. / 2.17 / 3.00 / 2.47 / 4.08 / n.d. | 1 of 18 (1.87) |

Excerpt, the first 5 entries:

{"CDR-L1": "TISTSMRYESSLKNAIA", "CDR-L2": "NAQTREQ", "CDR-L3": "QQYHRLPLS", "log10 Kd (nM) by replicate": "0.14 / 0.38 / 0.26 / 0.29 / 0.35 / 0.54", "control signals": "0 of 18"}
{"CDR-L1": "MISDMGLHDSRIHNSVA", "CDR-L2": "NNSTREA", "CDR-L3": "QQYDRLPLS", "log10 Kd (nM) by replicate": "2.17 / 1.75 / 1.35 / 1.42 / 1.53 / 1.93", "control signals": "2 of 18 (2.64)"}
{"CDR-L1": "TITQSAQQESHNKNSVA", "CDR-L2": "DLSVRGS", "CDR-L3": "QQYHRLPLS", "log10 Kd (nM) by replicate": "0.28 / -0.14 / -0.06 / 0.14 / 0.00 / 0.02", "control signals": "2 of 18 (1.83)"}
{"CDR-L1": "KISQFVNFEGKNKNSVA", "CDR-L2": "QMSTRES", "CDR-L3": "QQYDRLPLS", "log10 Kd (nM) by replicate": "0.28 / 0.35 / 0.38 / 0.19 / 0.39 / 0.50", "control signals": "1 of 18 (2.28)"}
{"CDR-L1": "HLSHSVDLESVHKNSIA", "CDR-L2": "DLMTRES", "CDR-L3": "QQYHRLPLS", "log10 Kd (nM) by replicate": "0.34 / 0.22 / 0.10 / 0.19 / 0.41 / 0.35", "control signals": "2 of 18 (3.74)"}